Reference: PubChem BioAssay (NCI)
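Cultured in 96-well plates, cells were exposed to test compound for 48 hours across five concentrations. GI50 marks 50% less growth. The concentration for full growth arrest is given as TGI.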

System: MDA-MB-468 breast
Assay: growth of human tumour cells (NCI), 48 h

Work on `Nc1ccc(N(CCCl)CCCl)cc1` yielded a GI50 of 3.13 µM and a TGI of 30.3 µM.
